The numbers were not newly measured in patent publication US20240018207A1, “INTERFERON TAU FC-FUSION PROTEINS AND METHODS FOR TREATING CORONAVIRUS INFECTIONS” (Southlake Pharmaceuticals, Inc., priority 2020, published 2024), which cites them from elsewhere.

For the data set the following is noted: mice fed with interferon; cited from earlier work.

Consider IFNB: IFN-β, type I interferon, for which the “toxicity / lymphocyte depression” value is reported as “significant levels of toxicity”.
